Source: US20050130909A1 (priority 2002, published 2005)

Test system: N,N′-diacetyl-Lys-D-Ala-D-Ala
Assay: ITC of binding to tri-peptide cell-wall analog, with and without HSA
Details: 25 ° C.

`CN[C@H]1C(=O)N[C@@H]2Cc3ccc(cc3)Oc3cc4cc(c3O[C@@H]3O[C@H](C(=O)O)[C@@H](O)[C@H](O)[C@H]3NC(=O)CCCCCCCCC(C)C)Oc3ccc(cc3Cl)[C@@H](O)[C@@H]3NC(=O)[C@H](NC(=O)[C@@H]4NC(=O)[C@@H](NC2=O)c2cc(cc(O)c2Cl)Oc2cc1ccc2O)c1ccc(O)c(c1)-c1c(O[C@H]2O[C@H](CO)[C@@H](O)[C@H](O)[C@@H]2O)cc(O)cc1[C@@H](C(=O)NCCCN(C)C)NC3=O` [Dalbavancin] was tested, and the Kass (with HSA 13.6 μM) was 118000 M⁻¹, the Kass (with HSA 80.7 μM) was 27600 M⁻¹ and the Kd (with HSA 80.7 μM, read-out: Kdiss) was 36.2 µM.
